Assays:
human δOP = human δOP (Homo sapiens, UniProt P41143); assay: PathHunter β‐arrestin 2 recruitment in CHO‐K1 cells; details: for β‐arrestin 2 α (efficacy): normalized to leu‐enkephalin, ±SEM, ND = not detectable
mouse δOP = mouse δOP (Mus musculus, UniProt P32300); assay: cAMP inhibition (GloSensor, forskolin-stimulated) in HEK 293 cells; details: for LogR (tau/Ka) cAMP: δOP, operational model; for cAMP pIC50: δOR section, HEK293 expressing mouse δOP, ±SEM
mouse κOP = mouse κOP (Mus musculus, UniProt P33534); assay: as above; details: for cAMP pIC50: κOR section, HEK293 expressing mouse κOP, ±SEM
C57BL/6 mice [1] = assay: Two‐bottle choice model of moderate 10% alcohol consumption
μOP = details: read-out: (Ki) affinity for μOP; ref Varadi et al., 2016; cited from earlier work
δOP = details: read-out: (Ki) affinity for δOP; ref Varadi et al., 2016; cited from earlier work
C57BL/6 mice [2] = assay: General locomotor activity assessment
mouse μOP = mouse μOP (Mus musculus, UniProt P42866); assay: cAMP inhibition (GloSensor, forskolin-stimulated) in HEK 293 cells; details: for LogR (tau/Ka) cAMP: µOP, operational model
C57BL/6 wild‐type mice = assay: Acute thermal antinociception (tail‐flick assay)
C57BL/6 mice [3] = assay: Brief conditioned place preference; details: male mice
C57BL/6 mice [4] = assay: Extended conditioned place preference; details: male mice
human κOP = human κOP (Homo sapiens, UniProt P41145); assay: PathHunter β‐arrestin 2 recruitment in U2OS cells
[5] = male wild‐type mice, 3 mg·kg^−1 i.p., vs vehicle
[6] = male wild‐type mice, 10 mg·kg^−1 i.p., vs vehicle
[7] = male wild‐type mice, 30 mg·kg^−1 i.p., 90 min, vs vehicle
[8] = male wild‐type mice, 30 mg·kg^−1 i.p., vs vehicle

Amino acid sequences for entries named in this document (tags omitted). A change or cut given only in a name is not applied to a line headed by its entry.
UniProt P32300, whole entry, looked up: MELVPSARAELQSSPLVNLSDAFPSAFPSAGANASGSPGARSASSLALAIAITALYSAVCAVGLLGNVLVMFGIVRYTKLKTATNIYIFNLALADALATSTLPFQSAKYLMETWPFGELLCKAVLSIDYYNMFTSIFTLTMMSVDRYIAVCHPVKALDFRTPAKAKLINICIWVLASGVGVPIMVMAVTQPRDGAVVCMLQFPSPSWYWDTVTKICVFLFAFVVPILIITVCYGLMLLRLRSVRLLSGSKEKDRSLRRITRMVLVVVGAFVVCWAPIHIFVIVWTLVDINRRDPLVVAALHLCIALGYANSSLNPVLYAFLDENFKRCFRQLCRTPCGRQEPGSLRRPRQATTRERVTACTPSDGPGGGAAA
UniProt P33534: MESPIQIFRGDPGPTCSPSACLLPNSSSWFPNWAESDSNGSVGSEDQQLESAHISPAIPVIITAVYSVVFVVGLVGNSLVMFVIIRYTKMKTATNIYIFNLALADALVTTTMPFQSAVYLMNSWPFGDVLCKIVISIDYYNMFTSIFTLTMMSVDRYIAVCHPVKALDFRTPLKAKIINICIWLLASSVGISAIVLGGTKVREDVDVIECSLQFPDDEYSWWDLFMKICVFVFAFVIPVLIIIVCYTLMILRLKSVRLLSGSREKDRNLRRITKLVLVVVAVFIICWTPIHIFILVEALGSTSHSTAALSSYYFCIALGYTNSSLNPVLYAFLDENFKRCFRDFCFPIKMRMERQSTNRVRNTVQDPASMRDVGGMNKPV
UniProt P42866, whole entry, looked up: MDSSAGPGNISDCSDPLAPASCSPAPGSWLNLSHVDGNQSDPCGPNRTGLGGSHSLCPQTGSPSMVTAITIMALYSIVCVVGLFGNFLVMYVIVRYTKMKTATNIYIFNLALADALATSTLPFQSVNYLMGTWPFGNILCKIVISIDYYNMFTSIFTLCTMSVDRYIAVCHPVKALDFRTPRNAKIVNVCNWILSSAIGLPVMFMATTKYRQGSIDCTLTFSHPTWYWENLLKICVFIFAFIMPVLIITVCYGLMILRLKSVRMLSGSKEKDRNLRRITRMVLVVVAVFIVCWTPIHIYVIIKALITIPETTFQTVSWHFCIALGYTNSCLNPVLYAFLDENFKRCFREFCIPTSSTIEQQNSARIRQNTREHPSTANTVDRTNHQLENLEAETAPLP
UniProt P41145: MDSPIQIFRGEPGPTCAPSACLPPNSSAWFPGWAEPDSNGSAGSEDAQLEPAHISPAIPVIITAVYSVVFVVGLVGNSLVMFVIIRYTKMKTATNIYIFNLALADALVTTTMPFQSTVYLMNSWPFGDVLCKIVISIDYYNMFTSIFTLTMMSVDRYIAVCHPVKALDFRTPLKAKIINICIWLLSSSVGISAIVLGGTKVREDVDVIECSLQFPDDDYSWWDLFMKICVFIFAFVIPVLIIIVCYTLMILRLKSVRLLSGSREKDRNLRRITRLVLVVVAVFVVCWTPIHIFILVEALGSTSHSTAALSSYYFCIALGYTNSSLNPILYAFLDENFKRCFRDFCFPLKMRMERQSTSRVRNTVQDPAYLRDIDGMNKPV

SMILES: CC[C@@H]1CN2CC[C@@]3(O)C(=Nc4cccc(OC)c43)[C@@H]2C[C@@H]1/C(=C\OC)C(=O)OC [listing 1 of 2 here]
- β‐arrestin 2 α (efficacy) (human δOP): 14 ± 1%
- LogR (tau/Ka) cAMP (mouse δOP): 4.841
- cAMP pIC50 (mouse κOP): 6.2 )
- Effect on 10% alcohol intake (C57BL/6 mice [1]; female wild‐type mice, 3 mg·kg^−1 i.p.): significantly decreased alcohol intake
- Effect on 10% alcohol intake (C57BL/6 mice [1]; [5]): decrease in alcohol intake was observed
- Effect on 10% alcohol intake (C57BL/6 mice [1]; [6]): decrease in alcohol intake was observed
- Effect on 10% alcohol intake (C57BL/6 mice [1]; male δOP knockout mice, 3 mg·kg^−1 i.p., vs vehicle): did not observe changes
- Effect on 10% alcohol intake (C57BL/6 mice [1]; male δOP knockout mice, 10 mg·kg^−1 i.p., vs vehicle): did not observe changes
- Ki (μOP): 37 nM
- Ki (δOP): 91 nM

SMILES: CC[C@H]1CN2CCc3c([nH]c4cccc(OC)c34)[C@@H]2C[C@@H]1/C(=C\OC)C(=O)OC [listing 1 of 2 here]
- Effect on locomotor activity (C57BL/6 mice [2]; [7]): significantly decreased locomotion

SMILES: COc1ccsc1CNCC[C@@]1(c2ccccn2)CCOC2(CCCC2)C1
- LogR (tau/Ka) cAMP (mouse δOP): 3.954
- cAMP pIC50 (mouse δOP): 5.6 )
- LogR (tau/Ka) cAMP (mouse μOP): 7.559
- cAMP pIC50 (mouse κOP): 4.9 )
- Effect on 10% alcohol intake (C57BL/6 mice [1]; male wild‐type mice, 1 mg·kg^−1 i.p., vs vehicle): failed to decrease
- Effect on 10% alcohol intake (C57BL/6 mice [1]; [5]): failed to decrease
- Antinociception in tail-flick assay (C57BL/6 wild‐type mice; male WT C57BL/6 mice, 1, 3 and 10 mg/kg s.c., 30 minutes post injection): produced antinociception

SMILES: CC(C)C[C@H](NC(=O)[C@H](Cc1ccccc1)NC(=O)CNC(=O)CNC(=O)[C@@H](N)Cc1ccc(O)cc1)C(=O)O
- β‐arrestin 2 α (efficacy) (human δOP): 100%
- LogR (tau/Ka) β-arrestin 2 (human δOP; δOP, operational model): 8.164
- LogR (tau/Ka) cAMP (mouse δOP): 8.028

SMILES: CC[C@H]1CN2CCc3c([nH]c4cccc(OC)c34)[C@@H]2C[C@@H]1/C(=C\OC)C(=O)OC [listing 2 of 2 here]
- Effect on 10% alcohol intake (C57BL/6 mice [1]; [8]): decreased alcohol intake

SMILES: CC[C@@H]1CN2CCc3c([nH]c4cccc(OC)c34)[C@@H]2C[C@@H]1/C(=C\OC)C(=O)OC
- LogR (tau/Ka) cAMP (mouse δOP): 4.393
- Effect on locomotor activity (C57BL/6 mice [2]; [7]): increased locomotor activity, although only the increase induced by 7‐hydroxymitragynine was significant
- Effect on 10% alcohol intake (C57BL/6 mice [1]; [8]): significantly decreased
- Effect on 10% alcohol intake (C57BL/6 mice [1]; male wild‐type mice, 100 mg·kg^−1 i.p., vs vehicle): significantly decreased

SMILES: CN1CC[C@]23c4c5ccc(O)c4O[C@H]2[C@@H](O)C=C[C@H]3[C@H]1C5
- Conditioned place preference (time on drug‐paired side), brief CPP (C57BL/6 mice [3]; 6 mg·kg^−1, two conditioning sessions): produced significant place preference
- Antinociception (%MPE) in tail‐flick assay (C57BL/6 wild‐type mice; 10 mg·kg^−1, two mice, internal control, data not shown): 100%
- Conditioned place preference, extended CPP (C57BL/6 mice [4]; 6 mg·kg^−1, four conditioning sessions): place preference was established

SMILES: CN(C(=O)Cc1ccc(Cl)c(Cl)c1)[C@@H]1CCCC[C@H]1N1CCCC1
- LogR (tau/Ka) cAMP (mouse κOP; κOP, operational model): 8.649
- β‐arrestin 2 α (efficacy) (human κOP; normalized to U50,488, ±SEM, ND = not detectable): 100%
- LogR (tau/Ka) β-arrestin 2 (human κOP; κOP, operational model): 6.947

SMILES: CC[C@@H]1CN2CC[C@@]3(O)C(=Nc4cccc(OC)c43)[C@@H]2C[C@@H]1/C(=C\OC)C(=O)OC [listing 2 of 2 here]
- Conditioned place preference (time on drug‐paired side), brief CPP (C57BL/6 mice [3]; 3 mg·kg^−1, two conditioning sessions): did not produce statistically significant increases
- Conditioned place preference (time on drug‐paired side), brief CPP (C57BL/6 mice [3]; 10 mg·kg^−1, two conditioning sessions): did not produce statistically significant increases
- Effect on locomotor activity (C57BL/6 mice [2]; female mice, 3 mg·kg^−1 i.p.): increased locomotor activity
- Effect on locomotor activity (C57BL/6 mice [2]; male wild‐type mice, 3 mg·kg^−1 i.p., 90 min, vs vehicle): increased locomotor activity
- Effect on locomotor activity (C57BL/6 mice [2]; male δOP knockout mice, 3 mg·kg^−1 i.p., vs controls): significantly increased locomotor activity
- Conditioned place preference, extended CPP (C57BL/6 mice [4]; 3 mg·kg^−1, four conditioning sessions): place preference was established

SMILES: C=CC1CN2CCc3c([nH]c4cccc(OC)c34)C2CC1C(=COC)C(=O)OC (centres unmarked)
- LogR (tau/Ka) cAMP (mouse δOP): 5.535
- cAMP pIC50 (mouse δOP): 5.6 )
- LogR (tau/Ka) cAMP (mouse μOP): 7.355
- cAMP pIC50 (mouse μOP; μOR section, HEK293 expressing mouse μOP, ±SEM): 5.4 )
- cAMP pIC50 (mouse κOP): 5.3 )
- Effect on locomotor activity (C57BL/6 mice [2]; male wild‐type mice, 10 mg·kg^−1 i.p., 90 min, vs vehicle): did not significantly alter locomotion
- Effect on 10% alcohol intake (C57BL/6 mice [1]; [6]): dose‐dependently decreased
- Effect on 10% alcohol intake (C57BL/6 mice [1]; [8]): dose‐dependently decreased

SMILES: Oc1ccc2c3c1O[C@H]1c4[nH]c5ccccc5c4C[C@@]4(O)[C@@H](C2)N(CC2CC2)CC[C@]314
- Effect on 7‐hydroxymitragynine‐induced inhibition of cAMP production (mouse δOP; HEK293 expressing δOP, pre-incubated with 100 nM naltrindole for 10 minutes): attenuated

Reference: PMC7060366
